Biological target: PTPN3-PDZ_(Next), PDZ domain of human PTPN3 extended at the N-terminus by 15 residues of its wild-type upstream sequence (human) (UniProt P26045)
Assay: AUC; sedimentation velocity, PTPN3-PDZ_(Next) at 70 μM with PBM peptide, 20 °C, 42000 rpm

By UniProt entry, the sequences of proteins in these tests, tags left out. Residues count along the entry.
UniProt P26045, 489-913: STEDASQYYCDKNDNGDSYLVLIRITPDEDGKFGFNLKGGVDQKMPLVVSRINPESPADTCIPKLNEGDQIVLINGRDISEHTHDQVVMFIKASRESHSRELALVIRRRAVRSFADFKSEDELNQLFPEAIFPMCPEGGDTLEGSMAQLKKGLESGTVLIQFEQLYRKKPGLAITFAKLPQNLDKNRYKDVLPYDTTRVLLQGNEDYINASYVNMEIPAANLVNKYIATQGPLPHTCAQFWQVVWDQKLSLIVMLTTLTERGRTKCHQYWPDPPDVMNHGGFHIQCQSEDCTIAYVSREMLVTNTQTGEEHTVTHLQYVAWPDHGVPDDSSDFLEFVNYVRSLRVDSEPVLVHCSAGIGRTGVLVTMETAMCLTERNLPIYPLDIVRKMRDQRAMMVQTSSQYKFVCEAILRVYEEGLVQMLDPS

Substance: HPV18E6 PBM peptide (C-terminal sequence of the human papillomavirus type 18 E6 protein)
- stoichiometry N: 1
